Test results published in publication PMC6713189, “Dual and selective inhibitors of pteridine reductase 1 (PTR1) and dihydrofolate reductase-thymidylate synthase (DHFR-TS) from Leishmania chagasi” (Journal of Enzyme Inhibition and Medicinal Chemistry, 2019).

System: biopterin
Test: purified protein, by the assay type
Details: other: pH 4.7, 30 °C, other substrate saturating

Q: Which Km does the source give for LcPTR1 (Leishmania infantum) here?
A: The Km was 25 ± 1.2 µM.
